The text below walks through data of patent US12247064B2, “Modified ligand-gated ion channels and methods of use” (Howard Hughes Medical Institute, priority 2017, dated 2025).

The chains behind the UniProt entries cited, without tags or fusion partners. A line that says so, or that is headed by a name, gives the form on record, which may keep a tag or linker.
UniProt P36544, with tags, fused parts or gaps Q79G: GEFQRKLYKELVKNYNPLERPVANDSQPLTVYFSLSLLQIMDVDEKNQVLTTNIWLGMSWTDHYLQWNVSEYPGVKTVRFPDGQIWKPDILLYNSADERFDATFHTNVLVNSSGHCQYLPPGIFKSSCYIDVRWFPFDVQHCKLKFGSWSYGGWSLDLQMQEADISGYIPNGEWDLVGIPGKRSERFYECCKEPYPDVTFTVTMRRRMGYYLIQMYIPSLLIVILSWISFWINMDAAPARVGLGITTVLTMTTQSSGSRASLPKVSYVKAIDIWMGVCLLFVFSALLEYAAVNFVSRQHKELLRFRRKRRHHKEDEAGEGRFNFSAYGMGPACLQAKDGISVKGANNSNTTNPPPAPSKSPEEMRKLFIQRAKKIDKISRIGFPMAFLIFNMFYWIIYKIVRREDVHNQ

SMILES strings stand for the structures. Where two headings read alike, the source gives them in different places.

Assay [1] addresses T1, α7^Q79G-GlyR^A298G (Homo sapiens, UniProt P36544, A298G/Q79G). The note with it: read-out: α7^Q79G-GlyR^A298G EC50; HEK cells; Table 3.
Assay [2] deals with T1, α7^Q79G-GlyR^A298G. Description: cell-based.

For `O=C(NC1C2CCN(CC2)C1Cc1cccnc1)c1ccc(C(F)(F)F)cc1` (mixture of isomers) [compound 0436], the half-maximal effective concentration (EC50) on α7^Q79G-GlyR^A298G [1] came to 6 nM.
Consider `O=C(Nc1ccccc1)N[C@@H]1CN2CCC1CC2` [compound 0353], for which the EC50 on α7^Q79G-GlyR^A298G [1] was found to be 10 nM.
At α7^Q79G-GlyR^A298G [2], `O=C(NC1CN2CCC1CC2)c1ccc(C(F)(F)F)nc1` (stereo not shown) [compound 0296] gave an EC50 of 450 nM.
In the case of `O=C(N[C@@H]1CN2CCC1CC2)c1c[nH]c2ccccc12` [compound 0676], the EC50 on α7^Q79G-GlyR^A298G [1] was 2 nM.

Usually EC50 stands for the concentration that produces a half-maximal response.
